# How the values were obtained:
# [1] = Binding constants between tetra-TTF calix[4]pyrroles and TNB by 1H NMR spectroscopic titration; details: binding to TNB, CDCl3, 298 K, 1:2 complexation, estimated errors <15%
# [2] = Binding constants between tetra-TTF calix[4]pyrrole 2a and nitrated aromatic guests by 1H NMR spectroscopic titration; details: guest binding to 2a, CDCl3, 298 K, 1:2 complexation, estimated errors <15%
Molecule,Ka^1 [1] [M⁻¹],Ka^2 [1] [M⁻¹],Ka^1 [2] [M⁻¹],Ka^2 [2] [M⁻¹]
CC1(C)c2[nH]c(c3c2SC(=C2SC4=C(SCCOCCOCCOc5ccccc5OCCOCCOCCS4)S2)S3)C(C)(C)c2[nH]c(c3c2SC(=C2SC4=C(SCCOCCOCCOc5ccccc5OCCOCCOCCS4)S2)S3)C(C)(C)c2[nH]c(c3c2SC(=C2SC4=C(SCCOCCOCCOc5ccccc5OCCOCCOCCS4)S2)S3)C(C)(C)c2[nH]c1c1c2SC(=C2SC3=C(SCCOCCOCCOc4ccccc4OCCOCCOCCS3)S2)S1,110,520,,
CC1(C)c2[nH]c(c3c2SC(=C2SC4=C(SCCCCCCCCCCOc5c6ccccc6c(c6ccccc56)OCCCCCCCCCCS4)S2)S3)C(C)(C)c2[nH]c(c3c2SC(=C2SC4=C(SCCCCCCCCCCOc5c6ccccc6c(c6ccccc56)OCCCCCCCCCCS4)S2)S3)C(C)(C)c2[nH]c(c3c2SC(=C2SC4=C(SCCCCCCCCCCOc5c6ccccc6c(c6ccccc56)OCCCCCCCCCCS4)S2)S3)C(C)(C)c2[nH]c1c1c2SC(=C2SC3=C(SCCCCCCCCCCOc4c5ccccc5c(c5ccccc45)OCCCCCCCCCCS3)S2)S1,200,1400,,
O=[N+]([O-])c1cccc([N+](=O)[O-])c1,,,27,60
COCCOCCOCCSC1=C(SCCOCCOCCOC)SC(=C2Sc3c4[nH]c(c3S2)C(C)(C)c2[nH]c(c3c2SC(=C2SC(SCCOCCOCCOC)=C(SCCOCCOCCOC)S2)S3)C(C)(C)c2[nH]c(c3c2SC(=C2SC(SCCOCCOCCOC)=C(SCCOCCOCCOC)S2)S3)C(C)(C)c2[nH]c(c3c2SC(=C2SC(SCCOCCOCCOC)=C(SCCOCCOCCOC)S2)S3)C4(C)C)S1,92,412,,
"2,4-dinitrophenole",,,39,76
"2,4,6-trinitrophenole",,,50,936
